Test results reported in patent publication US12384825B2, “Monomeric peptide multi-agonist targeting the GLP1 receptor and NPY receptors” (Syracuse University, priority 2019, dated 2025).

Experiment: Drive to obtain fentanyl in rats
Details: doses lower than exendin-4

SMILES: CC[C@H](C)[C@H](NC(=O)[C@H](Cc1ccccc1)NC(=O)[C@H](CCC(=O)O)NC(=O)[C@H](CCCNC(=N)N)NC(=O)[C@@H](NC(=O)[C@H](C)NC(=O)[C@H](CCC(=O)O)NC(=O)[C@H](CCC(=O)O)NC(=O)[C@H](CCC(=O)O)NC(=O)[C@H](CC(C)C)NC(=O)[C@H](Cc1ccc(O)cc1)NC(=O)[C@H](CCCCN=[N+]=[N-])NC(=O)[C@H](CO)NC(=O)[C@H](CC(C)C)NC(=O)[C@H](CC(=O)O)NC(=O)[C@H](CO)NC(=O)[C@@H](NC(=O)[C@H](Cc1ccccc1)NC(=O)[C@@H](NC(=O)CNC(=O)[C@H](CCC(N)=O)NC(=O)[C@@H](CO)NC(=O)[C@@H](N)Cc1c[nH]cn1)[C@@H](C)O)[C@@H](C)O)C(C)C)C(=O)N[C@@H](C)C(=O)N[C@@H](Cc1c[nH]c2ccccc12)C(=O)N[C@@H](CC(C)C)C(=O)N[C@@H](CCCCN)C(=O)N[C@@H](CC(N)=O)C(=O)NCC(=O)NCC(=O)N1CCC[C@H]1C(=O)N[C@@H](CO)C(=O)N[C@@H](CCCNC(=N)N)C(=O)N[C@@H](Cc1c[nH]cn1)C(=O)N[C@@H](Cc1ccc(O)cc1)C(=O)N[C@@H](CC(C)C)C(=O)N[C@@H](CC(N)=O)C(=O)N[C@@H](CC(C)C)C(=O)N[C@H](C(=O)N[C@H](C(=O)N[C@@H](CCCNC(=N)N)C(=O)N[C@@H](CCC(N)=O)C(=O)N[C@@H](CCCNC(=N)N)C(=O)N[C@@H](Cc1ccc(O)cc1)C(N)=O)[C@@H](C)O)C(C)C [GEP44]
- drive to obtain fentanyl: reduction in the drive to obtain fentanyl
